Source: ChEMBL document CHEMBL2385080, “Designing bifunctional NOP receptor-mu opioid receptor ligands from NOP receptor-selective scaffolds. Part I” (2013)

The chains behind the UniProt entries cited, without tags or fusion partners.
UniProt P41145, whole entry: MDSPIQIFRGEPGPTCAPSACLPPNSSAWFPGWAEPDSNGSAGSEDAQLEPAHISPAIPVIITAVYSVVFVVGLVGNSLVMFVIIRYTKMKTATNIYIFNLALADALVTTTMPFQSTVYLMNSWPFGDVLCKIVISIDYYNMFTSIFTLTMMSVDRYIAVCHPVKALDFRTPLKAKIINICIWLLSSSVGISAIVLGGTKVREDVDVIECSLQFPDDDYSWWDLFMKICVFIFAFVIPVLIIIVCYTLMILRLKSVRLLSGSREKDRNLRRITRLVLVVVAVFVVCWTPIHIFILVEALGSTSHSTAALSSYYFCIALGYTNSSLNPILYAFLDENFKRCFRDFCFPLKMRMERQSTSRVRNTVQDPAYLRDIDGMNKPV
UniProt P35372, whole entry: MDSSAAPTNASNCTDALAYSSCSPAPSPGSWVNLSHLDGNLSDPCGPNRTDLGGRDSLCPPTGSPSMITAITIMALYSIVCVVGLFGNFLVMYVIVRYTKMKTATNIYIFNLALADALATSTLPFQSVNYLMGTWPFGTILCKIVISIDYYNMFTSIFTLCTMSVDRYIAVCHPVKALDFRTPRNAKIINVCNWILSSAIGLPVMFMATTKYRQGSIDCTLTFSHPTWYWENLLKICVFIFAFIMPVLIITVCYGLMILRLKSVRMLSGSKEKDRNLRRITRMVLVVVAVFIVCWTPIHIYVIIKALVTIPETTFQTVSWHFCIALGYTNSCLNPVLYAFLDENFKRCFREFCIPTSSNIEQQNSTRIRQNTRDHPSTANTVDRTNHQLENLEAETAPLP
UniProt P41146, whole entry: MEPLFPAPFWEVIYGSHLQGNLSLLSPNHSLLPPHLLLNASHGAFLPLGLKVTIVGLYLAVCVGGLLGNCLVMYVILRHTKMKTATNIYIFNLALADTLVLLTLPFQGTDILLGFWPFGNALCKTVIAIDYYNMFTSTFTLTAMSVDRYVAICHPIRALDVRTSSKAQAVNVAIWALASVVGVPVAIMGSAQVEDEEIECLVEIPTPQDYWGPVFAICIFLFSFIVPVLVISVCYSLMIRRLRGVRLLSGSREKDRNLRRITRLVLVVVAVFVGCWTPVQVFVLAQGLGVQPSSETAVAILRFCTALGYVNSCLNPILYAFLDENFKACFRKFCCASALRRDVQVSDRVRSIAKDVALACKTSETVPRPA

Legend:
[1] = target: T1, Kappa-type opioid receptor (Homo sapiens, UniProt P41145); assay: Agonist activity at human kappa opioid receptor transfected in CHO cells assessed as stimulation of [35S]GTPgammaS binding by liquid scintillation counting analysis
[2] = target: T1, Kappa-type opioid receptor; assay: Displacement of [3H] U69593 from human kappa opioid receptor transfected in CHO cells
Mu-type opioid receptor [3] = target: T2, Mu-type opioid receptor (Homo sapiens, UniProt P35372); assay: Displacement of [3H]DAMGO from human mu opioid receptor transfected in CHO cells
Nociceptin receptor [4] = target: T3, Nociceptin receptor (Homo sapiens, UniProt P41146); assay: Displacement of [3H] N/OFQ from human nociceptin receptor transfected in CHO cells
Nociceptin receptor [5] = target: T3, Nociceptin receptor; assay: Agonist activity at human nociceptin receptor transfected in CHO cells assessed as stimulation of [35S]GTPgammaS binding by liquid scintillation counting analysis
Mu-type opioid receptor [6] = target: T2, Mu-type opioid receptor; assay: Agonist activity at human mu opioid receptor transfected in CHO cells assessed as stimulation of [35S]GTPgammaS binding by liquid scintillation counting analysis

With `CC(c1ccccc1)N1CCC(N2C(=O)Cc3ccccc32)CC1` (configuration not stated) the EC50 [1] was 423 nM.
`CC(C1CCCCC1)N1CCC(N2C(=O)Cc3ccccc32)CC1` (configuration not stated) gave an EC50 [1] of 873 nM.
Compound `CC1C(=O)N(C2CCN([C@H]3CC[C@@H](C(C)C)CC3)CC2)c2ccccc21` (some centres not stated) has an EC50 [1] of less than 10000 nM, a Ki [2] of 41.8 nM and a Ki (Mu-type opioid receptor [3]) of 3.62 nM. The Ki (Nociceptin receptor [4]) was 6.53 nM, the EC50 (Nociceptin receptor [5]) was 54.9 nM and the EC50 (Mu-type opioid receptor [6]) was 120 nM.
Compound `CC1CC(=O)N(C2CCN(C3CCCCCCC3)CC2)c2ccccc21` (configuration not stated) has an EC50 [1] of less than 10000 nM, a Ki [2] of 27.7 nM and a Ki (Mu-type opioid receptor [3]) of 23.3 nM. The Ki (Nociceptin receptor [4]) was 40.3 nM, the EC50 (Nociceptin receptor [5]) was 94.7 nM and the EC50 (Mu-type opioid receptor [6]) was 58 nM.
In the case of `CCC1C(=O)N(C2CCN([C@H]3CC[C@@H](C(C)C)CC3)CC2)c2ccccc21` (some centres not stated), the EC50 [1] is reported as less than 10000 nM, the Ki [2] is reported as 82.4 nM and the Ki (Mu-type opioid receptor [3]) is reported as 1.07 nM. For the same compound, the Ki (Nociceptin receptor [4]) was 5.22 nM, the EC50 (Nociceptin receptor [5]) was 8.5 nM and the EC50 (Mu-type opioid receptor [6]) was 4.7 nM.
`CCC1C(=O)N(C2CCN(C3CCCCCCC3)CC2)c2ccccc21` (configuration not stated) showed an EC50 [1] of less than 10000 nM, a Ki [2] of 43.4 nM and a Ki (Mu-type opioid receptor [3]) of 16.3 nM. For the same compound, the Ki (Nociceptin receptor [4]) was 8.67 nM, the EC50 (Nociceptin receptor [5]) was 6.8 nM and the EC50 (Mu-type opioid receptor [6]) was 37.3 nM.
In the case of `CCC(C)(C)[C@H]1CC[C@@H](N2CCC(N3C(=O)Cc4ccccc43)CC2)CC1`, the Ki [2] is reported as 160 nM, the Ki (Mu-type opioid receptor [3]) is reported as 16.1 nM and the Ki (Nociceptin receptor [4]) is reported as 15.3 nM. It also gave an EC50 (Nociceptin receptor [5]) of 83 nM and an EC50 (Mu-type opioid receptor [6]) of 189 nM.
`CC(C)C1CCC(N2CCC(N3C(=O)Cc4ccccc43)CC2)CC1` (configuration not stated) showed an EC50 [1] of less than 10000 nM.
Compound `CC(C)C1CCC(N2CCC(N3C(=O)CCc4ccccc43)CC2)CC1` (configuration not stated) has an EC50 [1] of less than 10000 nM, a Ki [2] of 70 nM and a Ki (Mu-type opioid receptor [3]) of 7.62 nM. It also gave a Ki (Nociceptin receptor [4]) of 20.4 nM, an EC50 (Nociceptin receptor [5]) of 127 nM and an EC50 (Mu-type opioid receptor [6]) of 68 nM.
For `O=C1Cc2ccccc2N1C1CCN(C2CCCCCCC2)CC1`, the EC50 (Nociceptin receptor [5]) was 20.8 nM.
With `CCC[C@H]1CC[C@@H](N2CCC(N3C(=O)Cc4ccccc43)CC2)CC1` the Ki [2] was 190 nM, the Ki (Mu-type opioid receptor [3]) was 5.39 nM and the Ki (Nociceptin receptor [4]) was 7.63 nM. It also gave an EC50 (Nociceptin receptor [5]) of 107 nM and an EC50 (Mu-type opioid receptor [6]) of 595 nM.
Work on `CC1C(=O)N(C2CCN(C3CCCCCCC3)CC2)c2ccccc21` (configuration not stated) yielded an EC50 [1] of less than 10000 nM, a Ki [2] of 39.2 nM and a Ki (Mu-type opioid receptor [3]) of 10.5 nM. It also gave a Ki (Nociceptin receptor [4]) of 12.7 nM, an EC50 (Nociceptin receptor [5]) of 30.2 nM and an EC50 (Mu-type opioid receptor [6]) of 94 nM.
In the case of `O=C1Cc2ccccc2N1C1CCN(C2C3CCCC2CCC3)CC1` (configuration not stated), the EC50 [1] is reported as less than 10000 nM and the EC50 (Mu-type opioid receptor [6]) is reported as 29 nM.
